Where “and” joins values, the source holds several entries; their conditions need not be identical. Equal entries are not always repeated.
Tests used:
[1] = target: mGluR2 (Rattus norvegicus, UniProt P31421); experiment: Calcium imaging (G protein chimera, GCaMP6f) in HEK 293 T cells; details: Experiment: Function
[2] = target: mGluR2 (Rattus norvegicus, UniProt P31421, INS660ASEIGTGFPFDPHYVEVLGERMHYVDVGPRDGTPVLFLHGNPTSSYVWRNIIPHVAPTHRCIAPDLIGMGKSDKPDLGYFFDDHVRFMDAFIEALGLEEVVLVIHDWGSALGFHWAKRNPERVKGIAFMEFIRPIPTWDEWPEFARETFQAFRTTDVGRKLIIDQNVFIEGTLPMGVVRPLTEVEMDHYREPFLNPVDREPLWRFPNELPIAGEPANIVALVEEYMDWLHQSPVPKLLFWGTPGVLIPPAEAARLAKSLPNCKAVDIGPGLNLLQEDNPDLIGSEIARWLSTLEISGLE); experiment: Inter-TMD FRET sensor (HaloTag in ICL2), live cells; details: Experiment: FRET

Amino acid sequences for entries named in this document (tags omitted). Chains listed by the source or under a name are the forms on record and can include a tag or linker. Residues count along the entry.
UniProt P31421, 19-872: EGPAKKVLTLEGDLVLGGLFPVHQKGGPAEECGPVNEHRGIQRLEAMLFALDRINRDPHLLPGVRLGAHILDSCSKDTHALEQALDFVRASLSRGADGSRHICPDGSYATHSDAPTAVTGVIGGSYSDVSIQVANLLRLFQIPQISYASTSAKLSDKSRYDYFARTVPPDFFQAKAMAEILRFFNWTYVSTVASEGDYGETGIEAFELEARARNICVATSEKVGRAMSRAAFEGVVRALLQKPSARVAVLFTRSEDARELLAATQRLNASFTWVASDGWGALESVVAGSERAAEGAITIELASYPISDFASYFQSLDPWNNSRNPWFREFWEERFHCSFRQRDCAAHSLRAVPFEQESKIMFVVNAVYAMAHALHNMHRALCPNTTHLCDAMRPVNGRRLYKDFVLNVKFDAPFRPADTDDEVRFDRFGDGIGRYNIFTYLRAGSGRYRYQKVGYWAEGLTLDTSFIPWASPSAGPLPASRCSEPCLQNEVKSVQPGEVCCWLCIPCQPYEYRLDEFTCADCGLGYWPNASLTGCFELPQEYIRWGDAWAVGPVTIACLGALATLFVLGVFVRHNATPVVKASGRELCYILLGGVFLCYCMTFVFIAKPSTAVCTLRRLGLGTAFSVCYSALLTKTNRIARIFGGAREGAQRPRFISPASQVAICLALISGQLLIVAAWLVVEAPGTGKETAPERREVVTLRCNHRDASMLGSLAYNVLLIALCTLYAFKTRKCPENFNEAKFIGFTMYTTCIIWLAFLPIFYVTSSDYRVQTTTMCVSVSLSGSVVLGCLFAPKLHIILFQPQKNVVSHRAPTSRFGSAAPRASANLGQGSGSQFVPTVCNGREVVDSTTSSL
UniProt P31421, with tags, fused parts or gaps with the stated changes: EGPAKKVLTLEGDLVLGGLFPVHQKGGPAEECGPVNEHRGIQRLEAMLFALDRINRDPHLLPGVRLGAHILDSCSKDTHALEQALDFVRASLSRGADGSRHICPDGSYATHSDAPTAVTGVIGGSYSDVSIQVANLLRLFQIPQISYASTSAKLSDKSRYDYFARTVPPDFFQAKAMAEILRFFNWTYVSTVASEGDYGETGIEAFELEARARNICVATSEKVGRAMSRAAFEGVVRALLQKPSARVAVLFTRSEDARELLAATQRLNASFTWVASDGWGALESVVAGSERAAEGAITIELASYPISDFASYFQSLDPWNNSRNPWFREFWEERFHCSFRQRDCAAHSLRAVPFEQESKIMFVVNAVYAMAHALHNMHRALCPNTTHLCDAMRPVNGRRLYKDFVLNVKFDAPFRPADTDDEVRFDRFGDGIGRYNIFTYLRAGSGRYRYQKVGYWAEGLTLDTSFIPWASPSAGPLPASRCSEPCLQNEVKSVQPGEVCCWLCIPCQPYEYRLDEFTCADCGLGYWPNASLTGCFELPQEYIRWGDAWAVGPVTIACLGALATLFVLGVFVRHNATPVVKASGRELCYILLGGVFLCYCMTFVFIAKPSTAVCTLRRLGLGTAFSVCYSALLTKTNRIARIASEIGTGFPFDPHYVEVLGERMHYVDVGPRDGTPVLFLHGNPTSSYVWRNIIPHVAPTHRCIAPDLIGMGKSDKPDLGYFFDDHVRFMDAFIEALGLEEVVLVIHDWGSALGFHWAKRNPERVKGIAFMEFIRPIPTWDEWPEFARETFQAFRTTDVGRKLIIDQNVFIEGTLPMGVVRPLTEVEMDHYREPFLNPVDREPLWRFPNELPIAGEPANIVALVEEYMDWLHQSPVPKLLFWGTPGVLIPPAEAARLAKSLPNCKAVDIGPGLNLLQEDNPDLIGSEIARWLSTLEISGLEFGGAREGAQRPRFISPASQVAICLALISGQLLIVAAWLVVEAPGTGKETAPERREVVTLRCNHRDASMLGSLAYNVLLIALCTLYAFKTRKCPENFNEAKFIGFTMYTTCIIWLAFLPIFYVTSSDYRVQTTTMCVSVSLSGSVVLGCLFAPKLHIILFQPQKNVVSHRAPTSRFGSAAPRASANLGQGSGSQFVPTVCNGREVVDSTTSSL

LY 487379
% Response [1]: 76.3% and 82.3% and 73.0%
% Response [2]: 32.9% and 25.6% and 42.1%
